# Source: patent publication US20130123253A1, “MODULATORS OF CENTRAL NERVOUS SYSTEM NEUROTRANSMITTERS” (HUMAN BIOMOLECULAR RESEARCH INSTITUTE, priority 2004, published 2013)
structure (smiles),measurement,setting,value
"COc1ccc(F)cc1CCC1CCC(CCN)O1 (centres unmarked) [Compound 14, 2-Aminoethyl-5-(2′-methoxy-5′-fluorophenethyl)tetrahydrofuran]","half life, rat liver microsomes",NADPH,1.77 h
same,RLM t1/2,Table 16,1.772 h
